Protein sequences, listed by entry. Tags and fused reporters are not part of them. Residues count along the entry.
UniProt P25774, 115-331: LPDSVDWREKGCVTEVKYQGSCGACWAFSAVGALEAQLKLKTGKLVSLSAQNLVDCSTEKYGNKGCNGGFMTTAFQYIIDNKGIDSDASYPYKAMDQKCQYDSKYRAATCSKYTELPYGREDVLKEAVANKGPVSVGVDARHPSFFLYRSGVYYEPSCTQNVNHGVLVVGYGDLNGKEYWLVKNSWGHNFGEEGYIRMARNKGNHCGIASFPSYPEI

According to US20090099157A1, “TETRAHYDRO-PYRAZOLO-PYRIDINE THIOETHER MODULATORS OF CATHEPSIN S” (priority 2007, published 2009):

What follows are compounds tested against Recombinant human cathepsin S (CatS) (Homo sapiens, UniProt P25774) (assay: biochemical).

First: CC1CCN(CCSc2cc(-c3nn(C[C@@H](O)CN4CCC(C)(O)CC4)c4c3CN(S(C)(=O)=O)CC4)ccc2C(F)(F)F)CC1 [Example 549, 1-[(2S)-2-Hydroxy-3-{3-[3-{[2-(4-methylpiperidin-1-yl)ethyl]sulfanyl}-4-(trifluoromethyl)phenyl]-5-(methylsulfonyl)-4,5,6,7-tetrahydro-1H-pyrazolo[4,3-c]pyridin-1-yl}propyl]-4-methylpiperidin-4-ol]
Second: CS(=O)(=O)N1CCc2c(c(-c3ccc(C(F)(F)F)c(SCCN4CCC(F)CC4)c3)nn2C[C@@H](O)CN2CCC(F)CC2)C1 [Example 503, (2S)-1-(4-Fluoropiperidin-1-yl)-3-{3-[3-{[2-(4-fluoropiperidin-1-yl)ethyl]sulfanyl}-4-(trifluoromethyl)phenyl]-5-(methylsulfonyl)-4,5,6,7-tetrahydro-1H-pyrazolo[4,3-c]pyridin-1-yl}propan-2-ol]
The IC50 of the first is 3.4-fold higher: 570 nM for the first, 170 nM for the second.

Compared with `CCN1CCc2c(c(-c3ccc(C(F)(F)F)c(SCC(=O)N4CCCC4)c3)nn2CC(O)CN2CCC(c3ccccn3)CC2)C1` (stereo not shown) [Example 282, 1-(5-Ethyl-3-{3-[(2-oxo-2-pyrrolidin-1-ylethyl)sulfanyl]-4-(trifluoromethyl)phenyl}-4,5,6,7-tetrahydro-1H-pyrazolo[4,3-c]pyridin-1-yl)-3-(4-pyridin-2-ylpiperidin-1-yl)propan-2-ol], `O=C(CSc1cc(-c2nn(CC(O)CN3CCC(c4ccccn4)CC3)c3c2CNCC3)ccc1C(F)(F)F)N1CCCC1` (stereo not shown) [Example 271, 1-(3-{3-[(2-Oxo-2-pyrrolidin-1-ylethyl)sulfanyl]-4-(trifluoromethyl)phenyl}-4,5,6,7-tetrahydro-1H-pyrazolo[4,3-c]pyridin-1-yl)-3-(4-pyridin-2-ylpiperidin-1-yl)propan-2-ol] is 4.3-fold lower in IC50: 260 nM for the first, 60 nM for the second.

Going from `O=C(CO)N1CCc2c(c(-c3ccc(C(F)(F)F)c(SCCN4CCC(F)CC4)c3)nn2CC(O)CN2CCCCC2)C1` (stereo not shown) [Example 283, 1-[3-{3-[2-(4-Fluoro-piperidin-1-yl)-ethylsulfanyl]-4-trifluoromethyl-phenyl}-1-(2-hydroxy-3-piperidin-1-yl-propyl)-1,4,6,7-tetrahydro-pyrazolo[4,3-c]pyridin-5-yl]-2-hydroxy-ethanone] to `NCC(=O)N1CCc2c(c(-c3ccc(C(F)(F)F)c(SCCN4CCC(F)CC4)c3)nn2CC(O)CN2CCCCC2)C1` (stereo not shown) [Example 338, 1-{3-[3-{[2-(4-Fluoropiperidin-1-yl)ethyl]sulfanyl}-4-(trifluoromethyl)phenyl]-5-glycyl-4,5,6,7-tetrahydro-1H-pyrazolo[4,3-c]pyridin-1-yl}-3-piperidin-1-ylpropan-2-ol], the IC50 rises from 280 nM to 810 nM (2.9-fold).

Going from `CS(=O)(=O)N1CCc2c(c(-c3ccc(C(F)(F)F)c(SCCN4CCC(F)(F)C4)c3)nn2CC(O)CN2CCC(C(=O)N3CCCC3)CC2)C1` (stereo not shown) [Example 825, 1-{3-[3-{[2-(3,3-Difluoropyrrolidin-1-yl)ethyl]sulfanyl}-4-(trifluoromethyl)phenyl]-5-(methylsulfonyl)-4,5,6,7-tetrahydro-1H-pyrazolo[4,3-c]pyridin-1-yl}-3-[4-(pyrrolidin-1-ylcarbonyl)piperidin-1-yl]propan-2-ol] to `CS(=O)(=O)N1CCc2c(c(-c3ccc(C(F)(F)F)c(SCCN4CCCC(F)(F)C4)c3)nn2C[C@@H](O)CN2CCC(c3ccccn3)CC2)C1` [Example 210, (2S)-1-{3-[3-{[2-(3,3-Difluoropiperidin-1-yl)ethyl]sulfanyl}-4-(trifluoromethyl)phenyl]-5-(methylsulfonyl)-4,5,6,7-tetrahydro-1H-pyrazolo[4,3-c]pyridin-1-yl}-3-(4-pyridin-2-ylpiperidin-1-yl)propan-2-ol], the IC50 falls from 65 nM to 10 nM (6.5-fold).

First: CS(=O)(=O)N1CCc2c(c(-c3ccc(C(F)(F)F)c(SCCN4CCC4)c3)nn2CCCN2CCCCC2)C1 [Example 306, 3-{3-[(2-Azetidin-1-ylethyl)sulfanyl]-4-(trifluoromethyl)phenyl}-5-(methylsulfonyl)-1-(3-piperidin-1-ylpropyl)-4,5,6,7-tetrahydro-1H-pyrazolo[4,3-c]pyridine]
Second: CCOC(=O)NC1CCN(CCCn2nc(-c3ccc(C(F)(F)F)c(SCCN4CCCCC4)c3)c3c2CCN(S(C)(=O)=O)C3)CC1 [Example 150, Ethyl(1-{3-[5-(methylsulfonyl)-3-{3-[(2-piperidin-1-ylethyl)sulfanyl]-4-(trifluoromethyl)phenyl}-4,5,6,7-tetrahydro-1H-pyrazolo[4,3-c]pyridin-1-yl]propyl}piperidin-4-yl)carbamate]
The IC50 of the first is 14-fold higher: 1260 nM for the first, 90 nM for the second. The second is the more potent here.

`C[C@H](O)C(=O)N1CCc2c(c(-c3ccc(C(F)(F)F)c(SCCN4CCC(F)CC4)c3)nn2CC(O)CN2CCCCC2)C1` (stereo partly drawn) [Example 370, (2S)-1-{3-[3-{[2-(4-Fluoropiperidin-1-yl)ethyl]sulfanyl}-4-(trifluoromethyl)phenyl]-1-(2-hydroxy-3-piperidin-1-ylpropyl)-1,4,6,7-tetrahydro-5H-pyrazolo[4,3-c]pyridin-5-yl}-1-oxopropan-2-ol] and `COCC(=O)N1CCc2c(c(-c3ccc(C(F)(F)F)c(SCCN4CCC(F)CC4)c3)nn2CC(O)CN2CCCCC2)C1` (stereo not shown) [Example 372, 1-{3-[3-{[2-(4-Fluoropiperidin-1-yl)ethyl]sulfanyl}-4-(trifluoromethyl)phenyl]-5-[(methyloxy)acetyl]-4,5,6,7-tetrahydro-1H-pyrazolo[4,3-c]pyridin-1-yl}-3-piperidin-1-ylpropan-2-ol] are within 1.5-fold of each other in IC50: 280 nM for the first, 380 nM for the second.

Going from `CS(=O)(=O)N1CCc2c(c(-c3ccc(C(F)(F)F)c(SCCN4CCC(F)CC4)c3)nn2C[C@H](O)CN2CCN(c3cnccn3)CC2)C1` [Example 202, (2R)-1-{3-[3-{[2-(4-Fluoropiperidin-1-yl)ethyl]sulfanyl}-4-(trifluoromethyl)phenyl]-5-(methylsulfonyl)-4,5,6,7-tetrahydro-1H-pyrazolo[4,3-c]pyridin-1-yl}-3-(4-pyrazin-2-ylpiperazin-1-yl)propan-2-ol] to `CS(=O)(=O)N1CCc2c(c(-c3ccc(C(F)(F)F)c(SCCN4CCC(F)CC4)c3)nn2CC(O)CN2CCC(CCO)CC2)C1` (stereo not shown) [Example 193, 1-{3-[3-{[2-(4-Fluoropiperidin-1-yl)ethyl]sulfanyl}-4-(trifluoromethyl)phenyl]-5-(methylsulfonyl)-4,5,6,7-tetrahydro-1H-pyrazolo[4,3-c]pyridin-1-yl}-3-[4-(2-hydroxyethyl)piperidin-1-yl]propan-2-ol], the IC50 rises from 80 nM to 130 nM (1.6-fold). The first is the more potent here.

Compared with `CS(=O)(=O)N1CCc2c(c(-c3ccc(C(F)(F)F)c(SCCN4CCN(c5ccccc5)CC4)c3)nn2CCCN2CCC(N3CCCC3=O)CC2)C1` [Example 26, 1-{1-[3-(5-Methanesulfonyl-3-{3-[2-(4-phenyl-piperazin-1-yl)-ethylsulfanyl]-4-trifluoromethyl-phenyl}-4,5,6,7-tetrahydro-pyrazolo[4,3-c]pyridin-1-yl)-propyl]-piperidin-4-yl}-pyrrolidin-2-one], `CS(=O)(=O)N1CCc2c(c(-c3ccc(C(F)(F)F)c(SCC(=O)N4CCc5ccccc5C4)c3)nn2CCCN2CCC(N3CCCC3=O)CC2)C1` [Example 98, 1-{1-[3-(3-{3-[2-(3,4-Dihydro-1H-isoquinolin-2-yl)-2-oxo-ethylsulfanyl]-4-trifluoromethyl-phenyl}-5-methanesulfonyl-4,5,6,7-tetrahydro-pyrazolo[4,3-c]pyridin-1-yl)-propyl]-piperidin-4-yl}-pyrrolidin-2-one] is 2.5-fold lower in IC50: 480 nM for the first, 190 nM for the second. The second is the more potent here.

Going from `CS(=O)(=O)N1CCc2c(c(-c3ccc(C(F)(F)F)c(SCC(=O)N4CCOCC4)c3)nn2CCCN2CCC(N3CCCC3=O)CC2)C1` [Example 94, 1-[1-(3-{5-Methanesulfonyl-3-[3-(2-morpholin-4-yl-2-oxo-ethylsulfanyl)-4-trifluoromethyl-phenyl]-4,5,6,7-tetrahydro-pyrazolo[4,3-c]pyridin-1-yl}-propyl)-piperidin-4-yl]-pyrrolidin-2-one] to `CC1CCCCN1C(=O)CSc1cc(-c2nn(CCCN3CCC(N4CCCC4=O)CC3)c3c2CN(S(C)(=O)=O)CC3)ccc1C(F)(F)F` (stereo not shown) [Example 81, 1-{1-[3-(5-Methanesulfonyl-3-{3-[2-(2-methyl-piperidin-1-yl)-2-oxo-ethylsulfanyl]-4-trifluoromethyl-phenyl}-4,5,6,7-tetrahydro-pyrazolo[4,3-c]pyridin-1-yl)-propyl]-piperidin-4-yl}-pyrrolidin-2-one], the IC50 rises from 70 nM to 190 nM (2.7-fold).

First: COc1ccccc1C1CCN(CC(O)Cn2nc(-c3ccc(C(F)(F)F)c(SCCN4CCC(O)CC4)c3)c3c2CCN(S(C)(=O)=O)C3)CC1 (stereo not shown) [Example 834, 1-[2-({5-[1-(2-Hydroxy-3-{4-[2-(methyloxy)phenyl]piperidin-1-yl}propyl)-5-(methylsulfonyl)-4,5,6,7-tetrahydro-1H-pyrazolo[4,3-c]pyridin-3-yl]-2-(trifluoromethyl)phenyl}sulfanyl)ethyl]piperidin-4-ol]
Second: CS(=O)(=O)N1CCc2c(c(-c3ccc(C(F)(F)F)c(SCCN4CCOCC4)c3)nn2CC(O)CN2CCC(O)C2)C1 (stereo not shown) [Example 356, 1-{2-Hydroxy-3-[5-(methylsulfonyl)-3-{3-[(2-morpholin-4-ylethyl)sulfanyl]-4-(trifluoromethyl)phenyl}-4,5,6,7-tetrahydro-1H-pyrazolo[4,3-c]pyridin-1-yl]propyl}pyrrolidin-3-ol]
The IC50 of the first is 57-fold lower: 20 nM for the first, 1140 nM for the second. The first is the more potent here.

Compared with `CC1C(=O)NCCN1CCSc1cc(-c2nn(CC(O)CN3CCC(N4CCCC4=O)CC3)c3c2CN(S(C)(=O)=O)CC3)ccc1C(F)(F)F` (stereo not shown) [Example 167, 4-[2-({5-[1-{2-Hydroxy-3-[4-(2-oxopyrrolidin-1-yl)piperidin-1-yl]propyl}-5-(methylsulfonyl)-4,5,6,7-tetrahydro-1H-pyrazolo[4,3-c]pyridin-3-yl]-2-(trifluoromethyl)phenyl}sulfanyl)ethyl]-3-methylpiperazin-2-one], `CC1C(=O)NCCN1CCSc1cc(-c2nn(CC(O)CN3CCCCC3)c3c2CN(S(C)(=O)=O)CC3)ccc1C(F)(F)F` (stereo not shown) [Example 166, 4-[2-({5-[1-(2-Hydroxy-3-piperidin-1-ylpropyl)-5-(methylsulfonyl)-4,5,6,7-tetrahydro-1H-pyrazolo[4,3-c]pyridin-3-yl]-2-(trifluoromethyl)phenyl}sulfanyl)ethyl]-3-methylpiperazin-2-one] is 8-fold higher in IC50: 80 nM for the first, 640 nM for the second.
